{
  "sequences": {"note": "Amino acid sequences for entries named in this document (tags omitted). Residues count along the entry.", "UniProt P02768, 25-609": "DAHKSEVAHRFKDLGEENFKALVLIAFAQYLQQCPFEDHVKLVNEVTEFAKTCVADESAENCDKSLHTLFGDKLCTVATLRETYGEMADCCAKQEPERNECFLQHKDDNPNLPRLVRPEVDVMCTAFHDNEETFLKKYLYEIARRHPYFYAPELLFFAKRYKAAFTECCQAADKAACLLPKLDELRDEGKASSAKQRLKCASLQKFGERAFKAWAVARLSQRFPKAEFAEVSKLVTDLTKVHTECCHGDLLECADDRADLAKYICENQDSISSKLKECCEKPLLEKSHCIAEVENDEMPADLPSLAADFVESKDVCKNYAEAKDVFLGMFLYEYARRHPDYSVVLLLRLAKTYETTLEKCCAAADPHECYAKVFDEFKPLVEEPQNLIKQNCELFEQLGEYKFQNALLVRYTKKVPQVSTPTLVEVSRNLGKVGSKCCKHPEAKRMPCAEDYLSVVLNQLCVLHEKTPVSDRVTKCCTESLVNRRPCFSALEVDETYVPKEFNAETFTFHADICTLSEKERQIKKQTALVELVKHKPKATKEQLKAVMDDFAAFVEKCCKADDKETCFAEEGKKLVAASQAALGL"},
  "source": "paper PMC11054528",
  "about": "“Evaluation of Physicochemical Properties of Ipsapirone Derivatives Based on Chromatographic and Chemometric Approaches” (Molecules, 2024)",
  "origin": "cited, not measured here",
  "target": "human serum albumin (HSA) (Homo sapiens, UniProt P02768)",
  "details": "calibration mixture for HSA-HPLC, reference value; column head printed CHI C18; cited from earlier work",
  "data": [
    {"smiles": "NC(=O)N1c2ccccc2C=Cc2ccccc21", "note": "[Carbamazepine]", "values": [
      {"measurement": "HSA binding (HSA-HPLC calibration)", "result": 75.0, "unit": "%"}
    ]}
  ]
}
